The results in this text go back to PMC12903857.

“And” between values parts separate entries of the source, which are not always exact repeats. Equal values may be shown once. Read-outs that look alike come from different tables or passages of the source. Non-standard residues stand in square brackets, D forms with d. Residues, ends and D or L forms follow the SMILES beside them. pS = N[C@@H](COP(=O)(O)O)C(=O)O

For the assay, the target named is T1, 14-3-3σ (Homo sapiens, UniProt P31947).
T1 sequence (P31947 1-248): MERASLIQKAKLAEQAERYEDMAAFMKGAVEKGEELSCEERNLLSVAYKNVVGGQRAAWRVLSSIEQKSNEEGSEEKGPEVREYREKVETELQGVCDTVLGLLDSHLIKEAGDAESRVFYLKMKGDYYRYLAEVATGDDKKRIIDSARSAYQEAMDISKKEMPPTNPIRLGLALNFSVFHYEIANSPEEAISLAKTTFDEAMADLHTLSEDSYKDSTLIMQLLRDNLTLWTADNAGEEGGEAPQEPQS
The assay is described as follows: SPR, binary interaction of 12-mer RAF peptides. The settings on record: for kd, single replicates: binary, kinetic fit, Replicate 1 and 2; for koff: read-out: kd / koff, Average ± SD, binary, kinetic fit, n = 2.

[1] abbreviates: read-out: ka / kon, Average ± SD, binary, kinetic fit, n = 2.
Setting [2] is: read-out: ka, single replicates, binary, kinetic fit, Replicate 1 and 2.

For `CSCC[C@H](NC(=O)[C@H](Cc1c[nH]cn1)NC(=O)[C@@H](NC(=O)[C@H](CC(N)=O)NC(=O)[C@@H]1CCCN1C(=O)[C@@H](NC(=O)[C@H](COP(=O)(O)O)NC(=O)[C@@H](NC(=O)[C@H](CO)NC(=O)[C@H](CCCNC(=N)N)NC(=O)[C@H](CCC(N)=O)NC(=O)[C@H](CCCNC(=N)N)NC(C)=O)[C@@H](C)O)[C@@H](C)O)C(C)C)C(N)=O` [C-RAF (12-mer), RQRST{pS}TPNVHM] (Ac-RQRST[pS]TPNVHM-NH2; N-terminus and C-terminus assumed), the “kd, single replicates” value is 0.3201 s⁻¹ and 0.3835 s⁻¹. Moreover, the kon under setting [1] came out at 140000 M⁻¹ s⁻¹. Also, under setting [2], the kon was determined as 114000 M⁻¹ s⁻¹.
In the case of `CC[C@H](C)[C@H](NC(=O)[C@H](Cc1c[nH]cn1)NC(=O)[C@@H](NC(=O)[C@H](CC(N)=O)NC(=O)[C@@H]1CCCN1C(=O)[C@H](C)NC(=O)[C@H](COP(=O)(O)O)NC(=O)[C@H](CO)NC(=O)[C@H](CO)NC(=O)[C@H](CCCNC(=N)N)NC(=O)[C@H](CC(=O)O)NC(=O)[C@H](CCCNC(=N)N)NC(C)=O)C(C)C)C(N)=O` [B-RAF (12-mer), RDRSS{pS}APNVHI] (Ac-RDRSS[pS]APNVHI-NH2; N-terminus and C-terminus assumed), the “kd, single replicates” value was 0.3206 s⁻¹ and 0.2998 s⁻¹; the koff was found to be 0.31 s⁻¹. Besides, the kon under setting [1] worked out at 110000 M⁻¹ s⁻¹. Besides, under setting [2], the kon came to 121000 M⁻¹ s⁻¹.
As to `CC[C@H](C)[C@H](NC(=O)[C@H](CCCNC(=N)N)NC(C)=O)C(=O)N[C@@H](CCCNC(=N)N)C(=O)N[C@@H](CO)C(=O)N[C@H](C(=O)N[C@@H](COP(=O)(O)O)C(=O)N[C@H](C(=O)N1CCC[C@H]1C(=O)N[C@@H](CC(N)=O)C(=O)N[C@H](C(=O)N[C@@H](Cc1c[nH]cn1)C(=O)N[C@@H](CCSC)C(N)=O)C(C)C)[C@@H](C)O)[C@@H](C)O` [A-RAF (12-mer), RIRST{pS}TPNVHM] (Ac-RIRST[pS]TPNVHM-NH2; N-terminus and C-terminus assumed), the “kd, single replicates” value is 0.2444 s⁻¹ and 0.2914 s⁻¹; the koff amounted to 0.268 s⁻¹. For the same molecule, under setting [1], the kon came to 130000 M⁻¹ s⁻¹.
